US20240366649A1, “4-ETHYNYL-3-HYDROXY-TETRAHYDROFURANYL-ADENINE PHOSPHORAMIDATES AND RELATED COMPOUNDS AND THEIR USE IN TREATING MEDICAL CONDITIONS” (ROME THERAPEUTICS, INC., priority 2021, published 2024)
Several values for one entry are separate records, joined by “and”; a condition that tells them apart may be missing. Identical values can stand only once.

Experiments:
[1] = test system: THP1-Dual™ KO-TREX1 cells; assay: CellTiter-Glo cell viability in THP1-Dual KO-TREX1 cells; settings: read-out: CTG IC50; CellTiter-Glo inhibition of cell viability, after five days of treatment
Description: (§1) THP1-Dual™ KO-TREX1 cells were purchased from Invivogen (cat #thpd-kotrex). The THP1-Dual™ KO-TREX1 cells were cultured in RPMI 1640, 10% heat-inactivated fetal bovine serum, 25 mM HEPES, 10 μg/mL Blasticidin, and […] Zeocin. THP1-Dual™ KO-TREX cells were treated with a dose titration of test compound in the presence of 1 μM 5-aza-2′-deoxycytidine (Sigma, cat #189825). Type 1 Interferon and cell viability were assessed after five days of treatment.
(§2) THP1-Dual™ KO-TREX1 cells were treated with 1 μM 5-aza-2′-deoxycytidine. THP1-Dual™ KO-TREX1 cells (50 μL) were added to each well of the 384-well plate containing test compound titration at 10,000 cells/well. Cells were incubated at 37° C., 5% CO2 in a humidified incubator for five days. On day five, 20 μL of cell supernatant was transferred to a 384-well, white-walled plate, followed by addition to each well of 50 μL of QUANTI-LUC solution containing stabilizer. Luminescence was detected on a plate reader according to manufacturer's instructions.
(§3) For certain compounds, the assay was run in a 96-well format, with the following modifications: • 190 μL, instead of 50 μL, of cells were added to each well, to provide 50,000 cells/well, instead of 10,000 cells/well, • Cells were incubated for 6 days, instead of 5 days, • 25 μL, instead of 20 μL, of cell supernatant was added to the white-walled plate for QUANT-LUC treatment; and • 25 μL, instead of 30 μL, of CellTiter-Glo was added to assess cell viability.
The remaining cells were assessed for cell viability by adding 30 μl of CellTiter-Glo (Promega, G9683) solution to each well, and placed on a shaker for 10 minutes at room temperature. Luminescence was detected on a plate reader, according to manufacturer's instructions. Percent inhibition of cell viability using CellTiter-Glo was calculated using the following analysis: (Average DMSO-Sample)/(Average DMSO-Average 20 μM control reagent)*100. The control reagent was Z-Leu-Leu-leucinal (see, for example, https://pubchem.ncbi.nlm.nib.gov/compound/462382).

[2] = molecular target: LINE1 reverse transcriptase (Homo sapiens, UniProt O00370); assay: Stable artificial-intron Cis LINE1 reporter assay; settings: HeLa L1 artificial-intron reporter cells, doxycycline-induced, 72 h, Firefly luciferase activity
[3] = test system: IFN production in THP1 TREX1 KO cells; assay: Cellular assay for altering IFN production in THP1 TREX1 KO cells; settings: for Maximum IFN Induction: maximum-fold IFN induction, 1 μM 5-aza-2′-deoxycytidine; for Maximum IFN Induction / EC50 / IC50: five days; for EC50: read-out: IFN EC50, inducers of IFN; for EC50 / IC50: in the presence of 1 μM 5-aza-2′-deoxycytidine; for IC50: read-out: IFN IC50, inhibitors of IFN; for Concentration at Max Induct.: lowest concentration at which the maximum-fold IFN induction was observed
Description: as §1
Stock solution of test compound was prepared in DMSO followed by a three-fold dilution in DMSO. Additional 50× dilution was prepared in cell culture media for each dilution. 10 μL of diluted test compound was then added to a 384-well plate.
as §2, §3
Percent inhibition of interferon was calculated using the following analysis: (Average DMSO-Sample)/(Average DMSO-Average 30 μM control reagent)*100. The control reagent for inhibition of interferon was a specific nucleoside reverse-transcriptase inhibitor with molecular weight <600 a.m.u. Percent induction of interferon was calculated using the following analysis: (Sample-Average DMSO)/(10 μM control reagent-Average DMSO)*100. The control reagent for induction of interferon was compound 8 (4′-ethynyl-2-chloro-2′-deoxyadenosine).

| Structure (SMILES) | IC50 [1] | IC50 [2] | EC50 [3] | IC50 [3] | Maximum IFN Induction [3] | Concentration at Max Induct. [3] |
| --- | --- | --- | --- | --- | --- | --- |
| C#C[C@]1(COP(=O)(N[C@@H](C)C(=O)OCc2ccccc2)Oc2ccccc2)O[C@@H](n2cnc3c(N)nc(F)nc32)C[C@@H]1O (stereo partly drawn) | 1.2 µM | < 0.05 µM | – | – | – | – |
| C#C[C@]1(COP(=O)(N[C@H](C)C(=O)OC(C)C)OCOC(=O)OC(C)C)O[C@@H](n2cnc3c(N)nc(Cl)nc32)C[C@@H]1O (stereo partly drawn) | – | > 0.5 µM | > 10 µM | – | – | – |
| C#C[C@]1(COP(=O)(NC(C)(C)C(=O)OC(C)C)Oc2ccccc2)O[C@@H](n2cnc3c(N)nc(F)nc32)C[C@@H]1O (stereo partly drawn) | > 10 µM | < 0.05 µM and 0.05 to 0.5 µM | > 10 µM | > 5 µM | – | – |
| C#C[C@@]12COP(=O)(OC(C)C)O[C@H]1C[C@H](n1cnc3c(N)nc(Cl)nc31)O2 (stereo partly drawn) [IV-1] | > 10 µM | < 0.05 µM and 0.05 to 0.5 µM | < 1 µM | – | > (values from 1.00 to less than 1.50) | 1.67 µM |
| C#C[C@]1(COP(=O)(N[C@@H](C)C(=O)OC)Oc2ccc(Br)cc2)O[C@@H](n2cnc3c(N)nc(Cl)nc32)C[C@@H]1O (stereo partly drawn) | > 10 µM | < 0.05 µM | 1 to 10 µM | – | >> (values from 1.50 to 2.00) | 10 µM and 6.7 µM |
| C#C[C@]1(COP(=O)(N[C@@H](C)C(=O)OCC)Oc2ccccc2)O[C@@H](n2cnc3c(N)ncnc32)C[C@@H]1O (stereo partly drawn) | – | < 0.05 µM | – | – | – | – |

Continued, in another order:

| IC50 [1] | IC50 [2] | EC50 [3] | IC50 [3] | Structure (SMILES) | Maximum IFN Induction [3] | Concentration at Max Induct. [3] |
| --- | --- | --- | --- | --- | --- | --- |
| – | > 0.5 µM | – | – | C#C[C@]1(COP(=O)(N[C@H](C)C(=O)OC(C)C)OCOC(=O)OC(C)C)O[C@@H](n2cnc3c(N)nc(F)nc32)C[C@@H]1O (stereo partly drawn) | – | – |
| > 10 µM | < 0.05 µM | < 1 µM | – | C#C[C@]1(COP(=O)(N[C@@H](C)C(=O)OCc2ccccc2)Oc2ccccc2)O[C@@H](n2cnc3c(N)nc(Cl)nc32)C[C@@H]1O (stereo partly drawn) | >> (values from 1.50 to 2.00) | – |
| > 10 µM | 0.05 to 0.5 µM | – | > 5 µM | C#C[C@]1(COP(=O)(N[C@@H](C)C(=O)OC(C)C)OCOC(=O)OC(C)C)O[C@@H](n2cnc3c(N)nc(F)nc32)C[C@@H]1O (stereo partly drawn) | – | – |
| – | < 0.05 µM | > 10 µM | – | C#C[C@]1(COP(=O)(N[C@@H](C)C(=O)OCC)Oc2ccccc2)O[C@@H](n2cnc3c(N)nc(F)nc32)C[C@@H]1O (stereo partly drawn) | – | – |
| > 10 µM | 0.05 to 0.5 µM | < 1 µM and 1 to 10 µM | – | C#C[C@]1(COP(=O)(N[C@@H](C)C(=O)OCC)Oc2ccccc2)O[C@@H](n2cnc3c(N)nc(Cl)nc32)C[C@@H]1O (stereo partly drawn) | >> (values from 1.50 to 2.00) | 10 µM |
| – | < 0.05 µM | > 10 µM | – | C#C[C@]1(COP(=O)(N[C@@H](C)C(=O)OC)Oc2ccc(Br)cc2)O[C@@H](n2cnc3c(N)nc(F)nc32)C[C@@H]1O (stereo partly drawn) | – | – |
